Reference: patent publication US20240165087A1, “APPLICATION OF RILUZOLE- AND BORNEOL-CONTAINING COMPOSITION IN PREPARATION OF MEDICATION FOR TREATING CEREBROVASCULAR DISEASES” (NEURODAWN PHARMACEUTICAL CO., LTD., priority 2021, published 2024)

Tests used:
release of glutamate = conditions: transient global cerebral ischemia in rodent; cited from earlier work
[1] = system: rat middle cerebral artery occlusion (MCAO) model; conditions: single intravenous injection, 4 mg/kg and 8 mg/kg, at 30 min after ischemia; cited from earlier work
MCAO rats = experiment: Rat focal cerebral ischemia-reperfusion model (MCAO), neurological deficit score and cerebral infarction area; conditions: in vivo

Nc1nc2ccc(OC(F)(F)F)cc2s1 [Riluzole, 2-Amino-6-trifluoromethoxybenzothiazole]
ischemia-induced surge in release of glutamate (release of glutamate): completely inhibits | cerebral infarction area [1]: significantly reduce | neurological deficit score [1]: significantly reduce | Fa, reducing the area of cerebral infarction in MCAO rats (MCAO rats): 0.247 and 0.380 | cerebral infarction area vs MCAO model group (MCAO rats): dose-dependently, significantly reduced | neurological deficit score of MCAO rats, dose dependence (MCAO rats; iv): dose-dependently reduce

“And” between values parts separate entries of the source, which are not always exact repeats. Equal entries are not always repeated.
